Drawing on patent US11504364B2, “Inhibitors of fibroblast activation protein” (Praxis Biotech LLC, priority 2018, dated 2022), this text covers IC50 for two compounds.

Sequences of proteins named here, by UniProt entry; tags and fusion partners are left off. A change or cut given only in a name is not applied to a line headed by its entry.
UniProt P28843: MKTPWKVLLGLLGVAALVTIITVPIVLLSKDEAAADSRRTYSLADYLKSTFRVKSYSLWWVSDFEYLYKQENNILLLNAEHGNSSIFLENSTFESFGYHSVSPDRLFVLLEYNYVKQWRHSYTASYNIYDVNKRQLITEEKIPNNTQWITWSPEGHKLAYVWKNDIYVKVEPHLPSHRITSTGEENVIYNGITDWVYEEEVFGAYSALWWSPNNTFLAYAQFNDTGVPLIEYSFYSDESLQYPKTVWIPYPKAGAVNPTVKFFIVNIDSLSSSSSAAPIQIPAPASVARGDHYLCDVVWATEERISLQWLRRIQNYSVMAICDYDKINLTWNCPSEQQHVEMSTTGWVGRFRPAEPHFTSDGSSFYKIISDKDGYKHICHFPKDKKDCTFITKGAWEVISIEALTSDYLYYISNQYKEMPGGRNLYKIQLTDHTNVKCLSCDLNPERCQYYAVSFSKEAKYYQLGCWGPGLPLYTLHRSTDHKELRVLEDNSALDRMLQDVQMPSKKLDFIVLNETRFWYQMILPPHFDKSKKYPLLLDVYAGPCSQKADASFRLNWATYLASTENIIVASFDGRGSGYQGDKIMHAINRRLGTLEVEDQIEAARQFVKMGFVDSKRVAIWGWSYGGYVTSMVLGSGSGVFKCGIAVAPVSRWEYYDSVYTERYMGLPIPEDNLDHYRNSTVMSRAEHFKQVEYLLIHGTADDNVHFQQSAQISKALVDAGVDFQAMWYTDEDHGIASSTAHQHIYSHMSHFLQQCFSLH

The subject of test [1] is human AML cell line MV4-11. Put plainly: Cytotoxicity assay in human leukemia cell lines (Cell-Titer Glo). The note with it: MV4-11, 48 h, read-out: MV4-11 viability IC50, μM.
Test [2] has as its target recombinant mouse DPPIV (rmDPPIV) (Mus musculus (Mouse), UniProt P28843). Nature of the test: DPPIV enzymatic activity assay. The format is biochemical. The note with it: Table 3A.

The term IC50 denotes the point on the concentration scale where inhibition reaches its midpoint.

As to `N#C[C@@H]1CC(F)(F)CN1C(=O)CNC(=O)c1ccnc2ccc(/C=C/c3ccc4ncccc4c3)cc12` [Compound 105], the half-inhibitory concentration (IC50) in test [1] is below 3 µM. In the case of `CC(C)[C@H](N)C(=O)N1CCC[C@H]1B(O)O` [Val-boroPro], the IC50 in test [2] was below 1 µM.
